“And” between values parts separate entries of the source, which are not always exact repeats. Equal entries are not always repeated. Where two headings read alike, the source gives them in different places.

In test [1] the target is bovine trypsin (Bos taurus) (UniProt P00760). The experiment in a line: ddG of purified BPTI mutants binding bovine trypsin, mostly from literature. Particulars: cited from earlier work.
Test [2] has the same target. The experiment in a line: yeast surface display with four-gate FACS sorting and deep sequencing, enrichment normalized to ddG with purified-protein data.
The target in test [3] is Bovine Trypsin (bovine). The following applies: natural protein.
Test [4] has as its target Bovine Trypsin (bovine). The following applies: natural protein. The source holds these as a separate data set.

With A16G (from UniProt P00974), the ddG in test [1] was 1.76 kcal/mol; in test [2] it was 3.6 kcal/mol.

A16L (from UniProt P00974): the ddG is 7.56 kcal/mol in test [1] and 8.02 kcal/mol in test [2].

Turning to A16R (from UniProt P00974), the ddG in test [1] is 4.67 kcal/mol; in test [2] it was 4.65 kcal/mol.

With A16S (from UniProt P00974), the ddG in test [1] was 3.03 kcal/mol; in test [2], 4.5 kcal/mol.

Consider A16V (from UniProt P00974), for which the ddG in test [1] was 7.55 kcal/mol; in test [2], 4.63 kcal/mol.

On to A16W (from UniProt P00974), for which the ddG is 9.64 kcal/mol in test [1] and 8.95 kcal/mol in test [2].

For the substance BPTI mutant R39I, purified, the Ki with Bovine Trypsin (bovine) [3] was 0.038 nM.

BPTI mutant T11N, purified returned a Ki with Bovine Trypsin (bovine) [4] of 0.004 nM.

Turning to G12A (from UniProt P00974), the figures for the ddG in test [1] and in test [2] were 4.35 kcal/mol and 3.36 kcal/mol, respectively.

Turning to G36A (from UniProt P00974), the values for the ddG in test [1] and in test [2] were 4.89 kcal/mol and 3.14 kcal/mol, respectively.

With I18A (from UniProt P00974), the ddG in test [1] is 4.97 kcal/mol; in test [2], 5.04 kcal/mol.

As to K15A (from UniProt P00974), the ddG in test [1] is 10.5 kcal/mol and 10.1 kcal/mol; in test [2], 11.1 kcal/mol.

Take K15D (from UniProt P00974): the values for the ddG in test [1] and in test [2] were 11.4 kcal/mol and 9.44 kcal/mol, respectively.

As for K15E (from UniProt P00974), the ddG is 9.32 kcal/mol in test [1] and 8.94 kcal/mol in test [2].

Consider K15F (from UniProt P00974), for which the results for the ddG in test [1] and in test [2] were 6.95 kcal/mol and 8.29 kcal/mol, respectively.

With K15G (from UniProt P00974), the ddG in test [1] was 12.2 kcal/mol; in test [2], 11 kcal/mol.

K15H (from UniProt P00974): the ddG in test [1] is 8.69 kcal/mol; in test [2], 8.36 kcal/mol.

For K15I (from UniProt P00974), the ddG in test [1] is 11.1 kcal/mol; in test [2], 10.5 kcal/mol.

For K15L (from UniProt P00974), the ddG in test [1] was 8.77 kcal/mol; in test [2], 9.41 kcal/mol.

As for K15M (from UniProt P00974), the ddG in test [1] is 7.61 kcal/mol; in test [2], 8.61 kcal/mol.

On to K15N (from UniProt P00974), for which the ddG in test [1] is 7.95 kcal/mol; in test [2] it was 8.61 kcal/mol.

As to K15Q (from UniProt P00974), the ddG in test [1] was 9.27 kcal/mol; in test [2], 8.15 kcal/mol.

As to K15R (from UniProt P00974), the ddG in test [1] was -0.77 kcal/mol; in test [2], -1.44 kcal/mol.

Regarding K15S (from UniProt P00974), the ddG in test [1] was 7.64 kcal/mol; in test [2], 8.76 kcal/mol.

For the substance K15T (from UniProt P00974), the ddG in test [1] was 10.5 kcal/mol; in test [2], 9.61 kcal/mol.

Turning to K15V (from UniProt P00974), the ddG in test [1] was 11.6 kcal/mol; in test [2], 10.3 kcal/mol.

On to K15W (from UniProt P00974), for which the ddG in test [1] is 8.57 kcal/mol; in test [2], 8.74 kcal/mol.

As to K15Y (from UniProt P00974), the ddG was 6.78 kcal/mol in test [1] and 8.96 kcal/mol in test [2].

R39H (from UniProt P00974) came in with a ddG in test [2] of 2.88 kcal/mol.

For the substance R39I (from UniProt P00974), the ddG was 3.64 kcal/mol in test [1] and 3.87 kcal/mol in test [2].

R39K (from UniProt P00974) yielded a ddG in test [2] of 3.47 kcal/mol.

For R39L (from UniProt P00974), in test [2], the ddG was found to be 3.57 kcal/mol.

R39M (from UniProt P00974) displayed a ddG in test [2] of 3.61 kcal/mol.

The substance R39N (from UniProt P00974) came in with a ddG in test [2] of 4.06 kcal/mol.

R39P (from UniProt P00974) gave a ddG in test [2] of 3.87 kcal/mol.

In test [2], R39Q (from UniProt P00974) had a ddG of 3.62 kcal/mol.

Substance R39S (from UniProt P00974) came in with a ddG in test [2] of 3.5 kcal/mol.

In test [2], R39T (from UniProt P00974) had a ddG of 3.93 kcal/mol.

As to R39V (from UniProt P00974), the ddG in test [2] amounted to 3.68 kcal/mol.

For R39W (from UniProt P00974), in test [2], the ddG was found to be 2.9 kcal/mol.

For R39Y (from UniProt P00974), the ddG in test [2] turned out to be 3.31 kcal/mol.

As to T11A (from UniProt P00974), the ddG in test [2] was found to be 2.03 kcal/mol.

Consider T11C (from UniProt P00974), for which the ddG in test [2] is 3.48 kcal/mol.

In the case of T11D (from UniProt P00974), the ddG in test [2] was determined as 3.52 kcal/mol.

On to T11E (from UniProt P00974), for which the ddG in test [2] is 2.48 kcal/mol.

Take T11F (from UniProt P00974): in test [2], the ddG turned out to be 2.38 kcal/mol.

In the case of T11G (from UniProt P00974), in test [2], the ddG turned out to be 1.39 kcal/mol.

In test [2], T11H (from UniProt P00974) returned a ddG of 4.27 kcal/mol.

In test [2], T11I (from UniProt P00974) showed a ddG of 1.92 kcal/mol.

As to T11K (from UniProt P00974), in test [2], the ddG was found to be 3.71 kcal/mol.

For the substance T11L (from UniProt P00974), the ddG in test [2] was 2.44 kcal/mol.

Consider T11M (from UniProt P00974), for which the ddG in test [2] stood at 2.66 kcal/mol.

T11N (from UniProt P00974): the ddG in test [1] was 2.32 kcal/mol; in test [2], 2.58 kcal/mol.

In test [2], T11P (from UniProt P00974) returned a ddG of 3.78 kcal/mol.

T11Q (from UniProt P00974) showed a ddG in test [2] of 3.76 kcal/mol.

Regarding T11R (from UniProt P00974), the ddG in test [2] stood at 2.35 kcal/mol.

With T11S (from UniProt P00974), the ddG in test [2] turned out to be 2.96 kcal/mol.

In turn, T11V (from UniProt P00974) gave a ddG in test [2] of 2.44 kcal/mol.

On to T11W (from UniProt P00974), for which, in test [2], the ddG was determined as 1.67 kcal/mol.

In turn, T11Y (from UniProt P00974) had a ddG in test [2] of 2.91 kcal/mol.

Turning to V34A (from UniProt P00974), the ddG in test [2] was 2.24 kcal/mol.

On to V34C (from UniProt P00974), for which the ddG in test [2] was 4.2 kcal/mol.

In the case of V34D (from UniProt P00974), in test [2], the ddG was determined as 2.72 kcal/mol.

Substance V34E (from UniProt P00974) returned a ddG in test [2] of 3.16 kcal/mol.

In turn, V34F (from UniProt P00974) returned a ddG in test [2] of 2.2 kcal/mol.

As for V34G (from UniProt P00974), the ddG in test [2] was 1.59 kcal/mol.

In the case of V34H (from UniProt P00974), the ddG in test [2] was 1.62 kcal/mol.

For V34I (from UniProt P00974), the ddG in test [2] was 2.21 kcal/mol.

For the substance V34K (from UniProt P00974), in test [2], the ddG is 3.44 kcal/mol.

In test [2], V34L (from UniProt P00974) had a ddG of 3.26 kcal/mol.

In turn, V34M (from UniProt P00974) came in with a ddG in test [2] of 2.94 kcal/mol.

For the substance V34N (from UniProt P00974), the ddG in test [2] turned out to be 1.97 kcal/mol.

In test [2], V34P (from UniProt P00974) registered a ddG of 2.1 kcal/mol.

Take V34Q (from UniProt P00974): the ddG in test [2] amounted to 3.08 kcal/mol.

For V34R (from UniProt P00974), the ddG in test [2] is 3.16 kcal/mol.

As to V34S (from UniProt P00974), the ddG in test [2] was determined as 2.41 kcal/mol.

As for V34T (from UniProt P00974), in test [2], the ddG is 2.72 kcal/mol.

Turning to V34W (from UniProt P00974), in test [2], the ddG is 2.39 kcal/mol.

The substance V34Y (from UniProt P00974) registered a ddG in test [2] of 2.17 kcal/mol.

For the substance WT (from UniProt P00974), in test [1], the ddG is 0 kcal/mol.

For the substance Y35A (from UniProt P00974), the ddG in test [2] was found to be 3.56 kcal/mol.

Turning to Y35C (from UniProt P00974), in test [2], the ddG came to 8.29 kcal/mol.

Y35D (from UniProt P00974) registered a ddG in test [2] of 4.92 kcal/mol.

In test [2], Y35E (from UniProt P00974) showed a ddG of 5.62 kcal/mol.

Turning to Y35F (from UniProt P00974), the ddG in test [2] turned out to be 0.809 kcal/mol.

As to Y35G (from UniProt P00974), the ddG in test [1] is 3.29 kcal/mol; in test [2], 3.38 kcal/mol.

In test [2], Y35H (from UniProt P00974) came in with a ddG of 2.39 kcal/mol.

As for Y35I (from UniProt P00974), the ddG in test [2] was 6.05 kcal/mol.

As to Y35K (from UniProt P00974), the ddG in test [2] stood at 7.81 kcal/mol.

For the substance Y35L (from UniProt P00974), the ddG in test [2] was determined as 5.1 kcal/mol.

Take Y35M (from UniProt P00974): the ddG in test [2] worked out at 2.52 kcal/mol.

As for Y35N (from UniProt P00974), the ddG in test [2] came out at 3.43 kcal/mol.

As for Y35P (from UniProt P00974), the ddG in test [2] was 7.23 kcal/mol.

In test [2], Y35Q (from UniProt P00974) yielded a ddG of 2.57 kcal/mol.

On to Y35R (from UniProt P00974), for which, in test [2], the ddG came out at 6.59 kcal/mol.

Y35S (from UniProt P00974) registered a ddG in test [2] of 2.49 kcal/mol.

On to Y35T (from UniProt P00974), for which the ddG in test [2] came out at 4.2 kcal/mol.

For Y35V (from UniProt P00974), in test [2], the ddG worked out at 5.35 kcal/mol.

In test [2], Y35W (from UniProt P00974) displayed a ddG of 1.79 kcal/mol.

Source of the values: article PMC6962383.
